Results reported in US8501807B2, “Pentaerythritol derivatives” (priority 2004, dated 2013).

Assay: Evaluation of moisture retaining ability in dry conditions (weight change, 18° C., RH 20%)
Type: physicochemical
Conditions: initial moisture content 60%, constant temperature and humidity chamber 18° C.
Experimental: Moisture retaining ability was evaluated and compared for the compounds obtained in the Examples.
Specifically, samples were prepared such that the moisture content of the compounds obtained in the Examples was 60%, and while the samples were kept in a constant temperature and humidity chamber (18° C., RH 20%), the weight change of the samples was observed over time, thereby enabling evaluation of the changes in moisture content.

## pentaerythritol ethoxylate (15/4 EO/OH) glycolic ester ethoxylate stearyl ether (pentaerythritol ethoxylate (15/4 EO/OH) steareth-10 carboxylate) [Example 42]
1 h
  moisture content of sample, 1 h: 57%
2 h
  moisture content of sample, 2 h: 55%
4 h
  moisture content of sample, 4 h: 48%
6 h
  moisture content of sample, 6 h: 34%
